# According to patent publication US20240294509A1, “PYRIDAZINONE COMPOUND AS PARP7 INHIBITOR” (Euregen Biopharma Co., Ltd., priority 2021, published 2024):
# Chains of the proteins cited; added tags and fusions are not shown.
# UniProt P09874, whole entry: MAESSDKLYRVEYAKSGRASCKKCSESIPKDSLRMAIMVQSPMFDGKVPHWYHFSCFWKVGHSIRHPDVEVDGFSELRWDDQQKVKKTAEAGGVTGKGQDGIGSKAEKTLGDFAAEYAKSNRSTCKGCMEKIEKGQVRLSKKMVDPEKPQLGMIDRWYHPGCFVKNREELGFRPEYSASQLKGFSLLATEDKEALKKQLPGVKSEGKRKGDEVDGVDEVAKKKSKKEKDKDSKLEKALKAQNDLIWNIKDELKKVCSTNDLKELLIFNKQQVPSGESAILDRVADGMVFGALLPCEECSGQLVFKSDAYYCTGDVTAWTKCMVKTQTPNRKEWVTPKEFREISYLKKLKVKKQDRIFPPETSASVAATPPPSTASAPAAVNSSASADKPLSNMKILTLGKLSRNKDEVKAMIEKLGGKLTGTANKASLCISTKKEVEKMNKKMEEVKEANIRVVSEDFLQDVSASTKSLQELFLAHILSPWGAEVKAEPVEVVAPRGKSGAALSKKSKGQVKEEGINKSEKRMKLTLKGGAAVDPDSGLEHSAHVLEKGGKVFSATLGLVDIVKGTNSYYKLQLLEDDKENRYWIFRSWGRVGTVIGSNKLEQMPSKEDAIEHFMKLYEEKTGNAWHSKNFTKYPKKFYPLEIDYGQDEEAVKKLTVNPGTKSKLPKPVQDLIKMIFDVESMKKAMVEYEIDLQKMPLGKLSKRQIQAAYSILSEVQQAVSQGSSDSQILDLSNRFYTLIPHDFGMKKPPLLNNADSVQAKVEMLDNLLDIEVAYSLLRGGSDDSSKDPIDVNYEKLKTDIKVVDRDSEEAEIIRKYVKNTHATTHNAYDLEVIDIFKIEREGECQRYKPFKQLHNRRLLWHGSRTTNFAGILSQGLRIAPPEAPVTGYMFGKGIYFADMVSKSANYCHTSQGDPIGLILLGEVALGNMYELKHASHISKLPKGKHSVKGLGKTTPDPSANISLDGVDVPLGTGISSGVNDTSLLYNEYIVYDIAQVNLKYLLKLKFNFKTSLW
# Target: PARP1 (Homo sapiens (Human), UniProt P09874)
# Conditions: tested form: formate
compound,measurement,value
O=C(CC[C@@H]1C[C@H](O)CN1c1cc(C(F)(F)F)c(=O)[nH]n1)N1CCN(c2ncc(C(F)(F)F)cn2)CC1,IC50,12.5 nM
